Measured values: patent US8759377B2, “Substituted dioxopiperidines and dioxopyrrolidines as MGLUR4 allosteric potentiators, compositions, and methods of treating neurological dysfunction” (Vanderbilt University, priority 2009, dated 2014)

Amino acid sequences for entries named in this document (tags omitted). Residues count along the entry.
UniProt Q14833, 33-912: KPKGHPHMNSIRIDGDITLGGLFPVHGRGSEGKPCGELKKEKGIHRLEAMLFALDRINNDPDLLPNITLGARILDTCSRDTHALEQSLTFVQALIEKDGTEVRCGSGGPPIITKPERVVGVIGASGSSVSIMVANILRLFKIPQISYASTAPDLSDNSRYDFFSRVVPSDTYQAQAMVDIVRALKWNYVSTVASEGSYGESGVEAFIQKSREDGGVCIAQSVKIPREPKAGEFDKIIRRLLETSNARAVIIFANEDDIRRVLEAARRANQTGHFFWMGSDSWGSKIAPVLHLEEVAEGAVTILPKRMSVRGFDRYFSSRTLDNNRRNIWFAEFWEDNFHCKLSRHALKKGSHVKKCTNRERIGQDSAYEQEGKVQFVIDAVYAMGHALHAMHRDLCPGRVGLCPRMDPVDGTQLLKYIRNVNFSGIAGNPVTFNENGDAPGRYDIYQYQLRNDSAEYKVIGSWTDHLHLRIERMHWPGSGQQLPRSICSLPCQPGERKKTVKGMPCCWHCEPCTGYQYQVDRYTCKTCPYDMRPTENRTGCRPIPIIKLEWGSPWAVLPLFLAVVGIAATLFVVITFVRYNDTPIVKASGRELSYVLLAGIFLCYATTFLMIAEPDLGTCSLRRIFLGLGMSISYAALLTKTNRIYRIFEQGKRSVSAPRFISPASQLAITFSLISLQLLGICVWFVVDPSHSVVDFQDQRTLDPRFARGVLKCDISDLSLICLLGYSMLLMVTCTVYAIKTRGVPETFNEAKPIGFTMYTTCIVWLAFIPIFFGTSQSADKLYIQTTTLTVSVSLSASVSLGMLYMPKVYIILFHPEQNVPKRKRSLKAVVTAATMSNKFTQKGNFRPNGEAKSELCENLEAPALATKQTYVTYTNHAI

Target: T1, human mGluR4 (Homo sapiens, UniProt Q14833)
T1 construct: expressed in transfected cells; host or cells: CHO cells
Experiment: human mGluR4 potentiation, Ca2+-sensitive dye fluorescence assay in transfected CHO cells
Format: cell-based
Description: The disclosed compounds and compositions can be evaluated for their ability to act as a potentiator of metabotropic glutamate receptor activity, in particular mGluR4 activity, by any suitable known methodology known in the art. For example, Chinese Hamster Ovary (CHO) cells transfected with human mGluR4 or HEK cells co-transfected with rat mGluR4 and the G-protein regulated Inwardly Rectifying Potassium channel (GIRK) were plated in clear bottom assay plates for assay in a Hamamatsu FDSS Fluorometric Plate Reader. The cells were loaded with either a Ca2+-sensitive fluorescent dye or the thallium responsive dye and the plates were washed and placed into a suitable kinetic plate reader. For human mGluR4 assays, a fluorescence baseline was established for 3-5 seconds, the disclosed compounds were then added to the cells, and the response in cells was measured. Approximately two and a half minutes later, a concentration of mGluR4 orthosteric agonist (e.g. glutamate or L-AP4) eliciting approximately 20% (EC20) of the maximal agonist response was added to the cells, and the response was measured. Two minutes later, a concentration of mGluR4 agonist (e.g. glutamate or L-AP4) eliciting 80% (EC80) of the maximal agonist response was added to the cells, and the response was measured. For rat mGluR4/GIRK experiments, a baseline was established for approximately five seconds, disclosed compounds were added, and either an EC20 or EC80 concentration of agonist was added approximately two and one half minutes later.
The above described assay operated in two modes. In the first mode, a range of concentrations of the disclosed compounds are added to cells, followed by a single fixed concentration of agonist. If the compound acts as a potentiatior, an EC50 value for potentiation and a maximum extent of potentiation by the compound at this concentration of agonist is determined by non-linear curve fitting. If the compound acts as a noncompetitive antagonist, an IC50 value is determined by non-linear curve fitting. In the second mode, several fixed concentrations of the disclosed compounds are added to various wells on a plate, followed by a range in concentrations of agonist for each concentration of disclosed compound. The ECso values for the agonist at each concentration of compound are determined by non-linear curve fitting. A decrease in the EC50 value of the agonist with increasing concentrations of the sample compound (a leftward shift of the agonist concentration-response curve) is an indication of the degree of mGluR4 potentiation at a given concentration of the sample compound. […]

[1] = EC50 for potentiation, human mGluR4, with EC20 concentration of agonist, read-out: hEC50

| EC50 [1] | SMILES | EC50 |
| --- | --- | --- |
| 661 nM | CC1(c2ccccc2)CC(=O)N(c2ccc(NC(=O)c3ccccn3)cc2Cl)C1=O (stereo not shown) [Example 6, N-(3-chloro-4-(3-methyl-2,5-dioxo-3-phenylpyrrolidin-1-yl)phenyl)picolinamide] |  |
| 613 nM | O=C(Nc1ccc(N2C(=O)[C@H]3CCCC[C@H]3C2=O)c(Cl)c1)c1ccccn1 [Example 9, N-(3-chloro-4-((3aR,7aS)-1,3-dioxo-1H-isoindol-2(3H,3aH,4H,5H,6H,7H,7aH)-yl)phenyl)picolinamide] |  |
| 97.8 nM | O=C(Nc1ccc(N2C(=O)[C@@H]3[C@H](C2=O)[C@@H]2C=C[C@H]3CC2)c(Cl)c1)c1ccccn1 [Example 1] |  |
|  | O=C(Nc1ccc(N2C(=O)[C@@H]3CCCC[C@H]3C2=O)c(Cl)c1)c1ccccn1 [Example 8, N-(3-chloro-4-((3aR,7aR)-1,3-dioxo-1H-isoindol-2(3H,3aH,4H,5H,6H,7H,7aH)-yl)phenyl)picolinamide] | 632 nM |

Like-named read-outs stand apart in the source and are kept apart here.
